Molecules are shown by their SMILES.

By UniProt entry, the sequences of proteins in these tests, tags left out. Where a name states a change or a piece, a line headed by the entry shows the natural chain unless it says otherwise.
UniProt P41145: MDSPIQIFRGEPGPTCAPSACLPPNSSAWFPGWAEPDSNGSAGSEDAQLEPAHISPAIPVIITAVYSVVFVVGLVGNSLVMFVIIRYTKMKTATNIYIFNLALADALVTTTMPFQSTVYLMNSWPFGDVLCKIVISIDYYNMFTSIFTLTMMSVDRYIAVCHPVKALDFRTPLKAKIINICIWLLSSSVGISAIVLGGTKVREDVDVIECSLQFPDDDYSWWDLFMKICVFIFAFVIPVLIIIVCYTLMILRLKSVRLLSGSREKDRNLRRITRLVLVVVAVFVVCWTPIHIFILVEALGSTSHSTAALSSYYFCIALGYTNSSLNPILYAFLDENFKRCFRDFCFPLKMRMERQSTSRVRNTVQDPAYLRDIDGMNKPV
UniProt P35372, whole entry, looked up: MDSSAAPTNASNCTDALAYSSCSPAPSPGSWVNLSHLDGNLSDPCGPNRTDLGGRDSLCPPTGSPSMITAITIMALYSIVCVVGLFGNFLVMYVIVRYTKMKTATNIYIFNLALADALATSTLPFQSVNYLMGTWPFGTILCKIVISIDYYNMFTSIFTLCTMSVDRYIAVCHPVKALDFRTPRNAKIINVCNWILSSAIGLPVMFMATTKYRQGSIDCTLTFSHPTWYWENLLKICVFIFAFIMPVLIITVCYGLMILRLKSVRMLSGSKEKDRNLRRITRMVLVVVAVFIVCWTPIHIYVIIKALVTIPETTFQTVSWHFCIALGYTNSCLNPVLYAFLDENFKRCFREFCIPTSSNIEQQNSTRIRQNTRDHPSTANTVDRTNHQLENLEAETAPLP
UniProt P41143, whole entry, looked up: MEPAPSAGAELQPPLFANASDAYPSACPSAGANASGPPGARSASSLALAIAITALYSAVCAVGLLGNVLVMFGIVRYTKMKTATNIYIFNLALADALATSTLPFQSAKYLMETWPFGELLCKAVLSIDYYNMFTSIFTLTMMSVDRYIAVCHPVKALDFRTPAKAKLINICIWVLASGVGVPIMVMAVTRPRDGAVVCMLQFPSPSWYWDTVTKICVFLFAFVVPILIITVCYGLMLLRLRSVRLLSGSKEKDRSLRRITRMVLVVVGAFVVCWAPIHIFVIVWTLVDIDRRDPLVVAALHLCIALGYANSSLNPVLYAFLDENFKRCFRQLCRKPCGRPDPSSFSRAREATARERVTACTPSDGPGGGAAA

Experiment [1] has as its target Opioid receptors; mu & kappa (Homo sapiens) (UniProt P41145+P35372). In words: Selectivity for kappa opioid receptor over mu opioid receptor expressed in CHO cells. The format is cell-based.
In experiment [2] the target is Opioid receptors; delta & kappa (Homo sapiens) (UniProt P41145+P41143). In words: Selectivity for kappa opioid receptor over delta opioid receptor. The format is protein assay.

On to `CN1CC[C@]23CCCC[C@H]2[C@H]1Cc1ccc(O)cc13`, for which the Ratio Ki was 0.09 in experiment [1] and 2 in experiment [2].

Take `Oc1ccc2c(c1)[C@@]13CCCC[C@H]1[C@@H](C2)N(CC1CCC1)CC3` [BUTORPHAN]: the Ratio Ki in experiment [1] was 3; in experiment [2] it was 70.
